GALK inh: inhibitors of human galactokinase; P51570; Purified GALK, Kinase-Glo residual ATP luminescence; Potency, µM (titrated, usually from 57.5 µM), for inactives: at the top dose activity change, negative = inhibition, actives largely listed as inhibitors; 0.007% of 270,000 active; also: potency is read from the fitted curve at half-maximal effect; % is scaled to controls: 0 for no effect and ±100 for the full control effect
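GALK at 5 nM final was combined with compound, 35 uM ATP and 100 uM galactose in HEPES pH8.0 with MgCl2 and DTT. The reaction ran one hour at room temperature before luminescent ATP detection.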
PINK1 modulator: PINK1 expression modulation. PINK1 immunofluorescence, high-content cytometry, 24 h. Potency, µM (series often up to 76.6 µM), for the others: at the top dose activation (PINK1 increase), most hits filed as activators. 0.2% of 410,000 active. AID 624263; active = well fitted activation curve with a large enough effect; inconclusive = small, poorly fitted or top-dose-only effect; cell line not stated here; also: potency is read from the fitted curve at half-maximal effect; % of control where 0% means no effect; nearly all actives have a fitted effect of over 65% in size
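PINK1 protein, normally rapidly degraded, was detected by immunofluorescence after 24 hour compound treatment of a stable cell line. Titration data (5 concentrations) came from laser-scanning cytometry, with CCCP-treated wells as controls.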
rTrxR1 inhibitor: blocks rat thioredoxin reductase 1 | Potency, µM (top dose mostly 114 µM), without a hit: at the top dose activity change, negative = inhibition, hits mostly inhibitors | recombinant rTrxR1, NADPH fluorescence consumption, selenite substrate | 1% of 390,000 active | O89049 | AID 588453; also: potency is read from the fitted curve at half-maximal effect; % is scaled to controls: 0 for no effect and ±100 for the full control effect; nearly all actives have a fitted effect of over 65% in size
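Rat TrxR1 (90 nM in the dispensed reagent) was pre-reduced with 400 uM NADPH for 5 min at room temperature, then incubated with compound for 15 min. After 400 uM selenite was added, NADPH fluorescence (Ex 340/Em 450 nm) was followed for 8 min.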
miR-21 FLuc: miR-21 reporter, rising signal | HeLa miR-21 FLuc reporter, luciferase, 48 h | Potency, µM (top dose mostly 38.3 µM), inactives show at the highest dose reporter change, positive = more light | 340,000 tested, under 10 active | AID 2288; active = well fitted rising curve with a large enough effect; inconclusive = small, poorly fitted or top-dose-only effect; inactive = no such curve, though single readings can be large or run the other way;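 note: % of control where 0% means no effect; miR-21 action dims this reporter so a rising signal means less miR-21 action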
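Compounds were titrated across several concentrations (up to approximately 40 uM) and incubated 48 hours with HeLa miR-21-FLuc reporter cells (miR-21 target sequence downstream of FLuc, endogenous miR-21). Readout was firefly luciferase luminescence after lytic detection reagent.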
TrxR1 substrate: is turned over as a substrate by rat TrxR1; 0.01% of 390,000 active; purified TrxR1 substrate turnover, NADPH consumption readout; Potency, µM (doses to about 114 µM), inactives show at the top dose activity change, negative = substrate turnover; AID 588456; O89049; also: potency is read from the fitted curve at half-maximal effect; % is scaled to controls: 0 for no effect and ±100 for the full control effect; nearly all actives have a fitted effect of over 50% in size
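Rat TrxR1, dispensed at 90 nM, was prereduced with 400 uM NADPH (final) for 5 min at ~22 deg C, then incubated with compound 15 min before 400 uM selenite. A first-read NADPH fluorescence drop versus no-compound background flagged substrates.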
* hit, by the source's call; ? = inconclusive; nt = not tested or not shown; [ ] = another dose, or the depositor's remark. Compounds with a hit are over-represented: about 1.1% of the library has one in this group of screens. Unless noted, calls follow the shape of the dose curve; as a rule, active = well fitted curve in the direction sought with a large enough effect; inconclusive = small, poorly fitted or top-dose-only effect, or another doubt; inactive = no such curve, though single readings can be large; an effect the other way counts as inactive or inconclusive.

#1 Cc1c(C(=O)Nc2ccccc2)sc2nc(-c3cc4cc(Cl)ccc4oc3=O)[nH]c(=O)c12
#2 Cc1ccc(NC(=O)c2nc(S(=O)(=O)Cc3ccccc3F)ncc2Cl)cc1
#3 Cc1ccc(NC(=O)CSc2nc(-c3ccccc3Cl)nc3cc(=O)[nH]n23)c(C)c1
#4 CCOC(=O)CCS(=O)(=O)c1nc(-c2ccccc2)cc(C(F)(F)F)n1
#5 CCOC(=O)CS(=O)(=O)c1nc(-c2ccccc2)cc(C(F)(F)F)n1
#6 O=C(O)CCS(=O)(=O)c1nc(-c2cccs2)cc(C(F)(F)F)n1

| assay / compound | 1 | 2 | 3 | 4 | 5 | 6 |
| --- | --- | --- | --- | --- | --- | --- |
| GALK inh | nt | nt | nt | 0.8% | -1.7% | -5.4% |
| PINK1 modulator | 3.4% | 3.9% | -1.5% | -0.4% | -3.0% | 9.1%[38.3 µM] |
| rTrxR1 inhibitor | -26.6% | 2.82µM* | 24.7%[57.1 µM] | 15.8µM* | ? | ? |
| miR-21 FLuc | -31.3% | nt | 2.0% | ? | ? | -2.0% |
| TrxR1 substrate | -14.2% | 8.6% | 7.8%[57.1 µM] | 5.5% | 7.9%[57.1 µM] | 103.7% |

Profiles as entered above.
O=C(O)CCS(=O)(=O)c1nc(-c2cccs2)cc(C(F)(F)F)n1 is entered as GALK inh = -5.4%; PINK1 modulator = 9.1%[38.3 µM]; rTrxR1 inhibitor = ?; miR-21 FLuc = -2.0%; TrxR1 substrate = 103.7%
Cc1c(C(=O)Nc2ccccc2)sc2nc(-c3cc4cc(Cl)ccc4oc3=O)[nH]c(=O)c12 is entered as GALK inh = nt; PINK1 modulator = 3.4%; rTrxR1 inhibitor = -26.6%; miR-21 FLuc = -31.3%; TrxR1 substrate = -14.2%

Additional records follow:
#7 COCC(C)NC(=O)CCS(=O)(=O)c1nc(-c2ccc(OC)cc2)cc(C(F)(F)F)n1 (stereo not drawn)
#8 COC(=O)CCS(=O)(=O)c1nc(-c2ccccc2)cc(C(F)(F)F)n1
#9 O=[N+]([O-])c1cc(-c2nc(-c3ccncc3)no2)ccc1NCc1ccccc1
#10 Cc1ccc(S(=O)(=O)N(CC(=O)NCCc2ccc(Cl)cc2)c2ccccc2C)cc1
#11 O=C(CSc1nccn1-c1cccc(Cl)c1)Nc1ccc2c(c1)OCO2
#12 CCOC(=O)/C(=C\c1ccc([N+](=O)[O-])o1)NC(=O)c1ccccc1

| assay / compound | 7 | 8 | 9 | 10 | 11 | 12 |
| --- | --- | --- | --- | --- | --- | --- |
| GALK inh | -0.2% | -3.4% | nt | nt | nt | -0.9% |
| PINK1 modulator | -2.8% | -4.7%[38.3 µM] | 11.8% | 2.9% | 21.1% | nt |
| rTrxR1 inhibitor | 56.2µM* | 17.8µM* | 16.5% | 21.6%[11.4 µM] | 13.3%[57.1 µM] | 7.94µM* |
| miR-21 FLuc | -10.4% | ? | -5.4% | ? | -13.1% | 4.5% |
| TrxR1 substrate | 17.4% | 1.9% | 4.3% | -6.8% | 2.7%[57.1 µM] | -1.3% |

#13 COc1cc2c(cc1OC)C1O[C@](CCCCN3C(=O)c4ccccc4C3=O)(C2)OC2=C1C(=O)c1ccccc1C2=O
#14 O=C(CS(=O)c1ccc(C(F)(F)F)cc1[N+](=O)[O-])Oc1ccccc1 (stereo not drawn)
#15 CS(=O)(=O)c1ccc(S(=O)CC(=O)OCc2ccccc2)c([N+](=O)[O-])c1 (stereo not drawn)
#16 COc1ccc(-c2noc(N3CCN(c4ccc(C)cc4)C(C)C3)n2)cc1OC (stereo not drawn)
#17 Cc1cccn2c(Nc3ccccc3)c(-c3cccs3)nc12
#18 COc1cc(/C=C(\C#N)C(=O)Nc2ccccn2)ccc1O

| assay / compound | 13 | 14 | 15 | 16 | 17 | 18 |
| --- | --- | --- | --- | --- | --- | --- |
| GALK inh | nt | 0.0% | -1.2% | nt | nt | -0.2% |
| PINK1 modulator | nt | -3.1% | 2.8% | 3.2% | 6.4% | 0.3% |
| rTrxR1 inhibitor | nt | ? | 2.82µM* | 22.6% | 9.3% | ? |
| miR-21 FLuc | 2.8%[7.66 µM] | ? | ? | 0.3% | 6.0% | -12.3% |
| TrxR1 substrate | nt | -2.2% | 6.1%[57.1 µM] | -3.1% | 42.9% | -11.4%[57.1 µM] |

#19 CCOc1cc(/C=C(\C#N)C(=O)Nc2ccccn2)ccc1O
#20 Cn1cnc([N+](=O)[O-])c1Sc1ncnc2nc[nH]c12
#21 CCc1c(C)sc(NC(=O)c2cc3nc(-c4ccc(OC)cc4)cc(C(F)(F)F)n3n2)c1C(=O)OC
#22 CC(C)(C)C(=O)Nc1ccc2c(c1)C(=O)C(=O)c1ccccc1-2
#23 Cc1oc2c(c(C)cc3oc(=O)c(CC(=O)NCCc4ccc(Cl)cc4)c(C)c32)c1C
#24 COc1ccc(-n2cccc2/C=C/[N+](=O)[O-])cc1

| assay / compound | 19 | 20 | 21 | 22 | 23 | 24 |
| --- | --- | --- | --- | --- | --- | --- |
| GALK inh | -2.6% | 1.4% | nt | nt | nt | nt |
| PINK1 modulator | 2.2% | 2.7% | 0.2% | -0.5% | 0.2% | -2.5% |
| rTrxR1 inhibitor | 25.1µM* | 25.1µM* | -4.7% | 6.31µM* | 27.3% | 10µM* |
| miR-21 FLuc | -4.7% | 24.7% | -2.7% | nt | 0.7% | 23.4% |
| TrxR1 substrate | -1.0% | 6.9%[57.1 µM] | 0.0% | 3.16µM* | 5.7% | 2.7% |

#25 COc1ccc(-n2cccc2C=O)cc1
#26 CCOC(=O)c1c(Nc2ccc(Cl)cc2)sc(/C=C2\C=Nc3ccccc32)c1O
#27 CCOCCCNC(=O)Cn1nc(C)n2c(cc3cc(C)ccc32)c1=O
#28 CC(/C=C/c1ccco1)=N/NC(=O)c1ccccc1Cl
#29 O=C(N/N=C/C=C/c1ccco1)c1ccncc1
#30 O=C(N/N=C/C=C/c1ccco1)c1ccccc1Cl

| assay / compound | 25 | 26 | 27 | 28 | 29 | 30 |
| --- | --- | --- | --- | --- | --- | --- |
| GALK inh | 0.0% | -3.7% | nt | 1.8% | 1.1% | -2.7% |
| PINK1 modulator | 1.0% | 10µM* | 1.3% | -1.1% | 0.5% | 0.3% |
| rTrxR1 inhibitor | -13.6% | -5.6% | 2.3% | 15.8µM* | 39.8µM* | 56.2µM* |
| miR-21 FLuc | -10.5% | -9.1% | -3.1% | -34.1% | -0.1% | -2.1% |
| TrxR1 substrate | -12.1% | -2.7% | 5.4% | 12.3%[57.1 µM] | -14.2% | -19.5% |

Bioassay records as filed in PubChem.
